Assays:
[1] = target: T1, Serine/threonine-protein kinase PAK 4 (Homo sapiens, UniProt O96013); test: Inhibition of PAK4
[2] = target: T1, Serine/threonine-protein kinase PAK 4; test: Inhibition of PAK4-mediated GEF-H1 phosphorylation at Ser810 by cell based assay

By UniProt entry, the sequences of proteins in these tests, tags left out. Where a name states a change or a piece, a line headed by the entry shows the natural chain unless it says otherwise.
UniProt O96013: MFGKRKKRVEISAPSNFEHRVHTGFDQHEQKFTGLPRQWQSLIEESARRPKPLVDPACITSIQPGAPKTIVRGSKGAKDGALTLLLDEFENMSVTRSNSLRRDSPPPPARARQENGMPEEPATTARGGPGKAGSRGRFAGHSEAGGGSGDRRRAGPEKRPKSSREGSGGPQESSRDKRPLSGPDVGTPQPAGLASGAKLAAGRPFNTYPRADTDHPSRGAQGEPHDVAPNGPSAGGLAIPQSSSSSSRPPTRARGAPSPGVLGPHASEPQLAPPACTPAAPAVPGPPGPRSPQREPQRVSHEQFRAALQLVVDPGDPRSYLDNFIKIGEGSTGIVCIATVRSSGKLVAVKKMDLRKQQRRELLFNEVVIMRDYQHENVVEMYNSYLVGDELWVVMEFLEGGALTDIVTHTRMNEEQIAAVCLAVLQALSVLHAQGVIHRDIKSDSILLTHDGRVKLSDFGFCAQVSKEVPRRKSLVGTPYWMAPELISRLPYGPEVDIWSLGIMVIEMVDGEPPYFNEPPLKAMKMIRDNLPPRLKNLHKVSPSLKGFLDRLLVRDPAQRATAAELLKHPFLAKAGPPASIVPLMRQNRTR

CN(C)C[C@@H](OC(=O)N1Cc2c(NC(=O)c3ccccc3)n[nH]c2C1(C)C)c1ccccc1
Ki [1]: 12 nM | EC50 [2]: 11 nM

From ChEMBL document CHEMBL2062373, “Discovery of pyrroloaminopyrazoles as novel PAK inhibitors” (J Med Chem, 2012)
